The values below come from publication PMC9198545, “Pharmacokinetics and Pharmacodynamics of Fungal Defensin NZX Against Staphylococcus aureus-Induced Mouse Peritonitis Model” (Frontiers in Microbiology, 2022).

This test has as its system S. aureus E48. The class given is in vivo, mouse. The following applies: 20 mg/kg intravenous single injection 2 h post-infection; 2 × 10^8 CFU/ml, 0.5 ml i.p.; 7 days; n = 6.

With `CCC[C@@H]1C[C@@H](C(=O)N[C@@H]([C@H]2O[C@H](SC)[C@H](O)[C@@H](O)[C@H]2O)[C@H](C)Cl)N(C)C1` [Clindamycin], the “survival rate of the mice” value is “all the mice were dead”.
